According to PubChem BioAssay AID793 (The Scripps Research Institute Molecular Screening Center, 2007):
The list shows a part of the results, in another mix than the full data. Calls of active or inactive are those of the source. No stated cut-off is given here; in the data, active means inhibition above about 17%; inactive means the rest.

Sequences of proteins named here, by UniProt entry; tags and fusion partners are left off.
UniProt P49146, whole entry, looked up: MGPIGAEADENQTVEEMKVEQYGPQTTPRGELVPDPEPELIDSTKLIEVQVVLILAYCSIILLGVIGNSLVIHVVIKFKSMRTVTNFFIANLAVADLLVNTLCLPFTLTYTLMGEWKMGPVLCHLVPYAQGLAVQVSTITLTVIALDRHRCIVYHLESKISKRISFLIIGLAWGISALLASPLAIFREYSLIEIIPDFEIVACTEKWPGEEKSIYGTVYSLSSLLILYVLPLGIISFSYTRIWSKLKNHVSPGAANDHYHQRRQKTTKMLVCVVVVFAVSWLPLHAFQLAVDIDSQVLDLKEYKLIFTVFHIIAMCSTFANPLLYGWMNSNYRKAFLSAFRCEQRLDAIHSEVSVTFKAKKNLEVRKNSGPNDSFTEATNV

Biological target: Neuropeptide Y receptor type 2 (Homo sapiens) (UniProt P49146)
Experiment: blockers of human neuropeptide Y Y2 receptor – cell-based, primary screen (AID 793);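 further: 0% = vehicle with agonist challenge and 100% = reference antagonist with challenge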
Conditions: NPY-Y2 expressing cells, antagonist mode; at 2.7 µM; active compounds read high

Row | Compound | inhibition
1 | O=P1(Nc2nc3ccc(Cl)cc3s2)COc2ccccc2O1 (centres undefined) | inactive: 2.41%
2 | CCOC(=O)NC(Sc1ccccc1)C(Cl)(Cl)Cl (centres undefined) | inactive: 1.43%
3 | COC(=O)c1cc2c(s1)N=C(c1ccccc1)N(C)P2(=O)N1CCOCC1 (centres undefined) | inactive: 1.04%
4 | CC(=O)NC(SC(=S)N(CC(C)C)CC(C)C)C(Cl)(Cl)Cl (centres undefined) | inactive: 9.55%
5 | CCC(=O)N1C2C3N(C(=O)CC)C1C1N(C(=O)CC)C(C(N1C(=O)CC)N3C(=O)CC)N2C(=O)CC | inactive: 5.21%
6 | C(Cc1nn[nH]n1)Cc1nn[nH]n1 | inactive: 7.64%
7 | O=C(OC1CN2CCC1CC2)c1cccc(Cl)c1 (centres undefined) | inactive: 1.82%
8 | CC(=O)NC(SC(=S)N(C)C)C(Cl)(Cl)Cl (centres undefined) | inactive: 0.46%
9 | c1nnnn1CCn1cnnn1 | inactive: 0.46%
10 | O=P(Nc1nccs1)(c1ccccc1)c1ccccc1 | inactive: 2.88%
11 | CC(C)C(=O)NC(Sc1ccccc1)C(Cl)(Cl)Cl (centres undefined) | inactive: 0.58%
12 | CC(=O)N1C2C3N(C(C)=O)C1C1N(C(C)=O)C(C(N1C(C)=O)N3C(C)=O)N2C(C)=O | inactive: -1.18%
13 | O=[N+]([O-])c1cccc2n[nH]nc12 | inactive: 3.45%
14 | CCc1nc2c(n1)c1c(non1O)c1c2no[n+]1[O-] | active: 39.9%
15 | CN(C)C(=O)OCCc1n(C)cc[n+]1C | inactive: 2%
16 | CC1CCN(C(=O)Oc2c(Cl)cc(Cl)c3cccnc23)CC1 | inactive: 6.63%
17 | CCOP(=O)(Nc1ccccc1)OCC | inactive: 0.39%
18 | Cc1cc(SC(NC(=O)c2ccc(F)cc2)C(Cl)(Cl)Cl)ncn1 (centres undefined) | inactive: 2.88%
19 | CCN(N=Nc1nonc1N)c1nonc1N | inactive: 1.21%
20 | CN1CCCC(OC(=O)C(c2ccccc2)c2ccccc2)C1 (centres undefined) | inactive: 4.57%
21 | CC(C)CC(=O)NC(Sc1ccc(Cl)cc1)C(Cl)(Cl)Cl (centres undefined) | inactive: -0.3%
22 | Oc1ccccc1CNc1ccccn1 | inactive: 2.71%
23 | Cc1c2non([O-])c-2c(C)[n+](=O)[n+]1[O-] | inactive: -1.6%
24 | O=C(NC(Sc1ccncn1)C(Cl)(Cl)Cl)c1ccccc1 (centres undefined) | inactive: 2.45%
25 | O=C(OC1CN2CCC1CC2)C12CC3CC(CC(C3)C1)C2 (centres undefined) | inactive: 7.98%

Row | Compound | inhibition
26 | Cc1c2c(nc3ccccc13)SC(C(Cl)Cl)C2 (centres undefined) | inactive: 2.19%
27 | Cc1ccc2nc3c(c(C)c2c1)CC(C(Cl)Cl)S3 (centres undefined) | inactive: 4.83%
28 | CCN(CC)C(=S)SC(NC=O)C(Cl)(Cl)Cl (centres undefined) | inactive: 0.75%
29 | O=[N+]([O-])c1cc([N+](=O)[O-])c(-c2ccn[nH]2)s1 | inactive: 3.8%
30 | ClCCSc1nnc(-c2cccnc2)o1 | inactive: 1.51%
31 | Cc1cc(SC(NC(=O)c2ccccc2)C(Cl)(Cl)Cl)nc(C(C)C)n1 (centres undefined) | inactive: 1.51%
32 | O=C(COc1ccccc1)OC1CN2CCC1CC2 (centres undefined) | inactive: 0.89%
33 | COP1(=S)c2c(C)nn(CCC#N)c2N=C(c2ccc(F)cc2)N1C (centres undefined) | inactive: 1.62%
34 | CCC(C)N(CC(C)C)C(=S)SC(NC(C)=O)C(Cl)(Cl)Cl (centres undefined) | inactive: 2.38%
35 | Clc1n[nH]nc1-c1nn[nH][15n]1 | inactive: -2.02%
36 | O=P1(Nc2ccccn2)COc2ccccc2OC1 | inactive: 0.17%
37 | CC1(CBr)Cn2c(nc3ccccc3c2=O)S1 (centres undefined) | inactive: 1.19%
38 | Cc1nn(-c2ccccc2)c2c1P(=O)(N1CCOCC1)N(C)C(c1ccccc1)=N2 (centres undefined) | inactive: 3.37%
39 | O=P1(Nc2ccc(Br)cn2)COc2ccccc2OC1 | inactive: 0.51%
40 | Cc1ccc(OCC(=O)OC2CN3CCC2CC3)cc1 (centres undefined) | inactive: 3.9%
41 | O=P1(Nc2ncccn2)COc2ccccc2OC1 | inactive: 0.47%
42 | CCOP1(=S)c2c(C)nn(CCC#N)c2N=C(c2ccccc2F)N1C (centres undefined) | inactive: 3.4%
43 | O=P(Nc1nccs1)(c1ccccc1)c1nc2ccccc2s1 (centres undefined) | inactive: 3.27%
44 | O=[N+]([O-])c1ccc2c(c1)nnn2O | inactive: 3.07%
45 | CCOP1(=S)c2c(C)nn(CCC#N)c2N=C(c2ccc(F)cc2)N1C (centres undefined) | inactive: -1.25%
46 | Cc1cccc(OCC(=O)OC2CN3CCC2CC3)c1 (centres undefined) | inactive: -1.15%
47 | COc1cc(C2NCCC3(OCCO3)C2(C)C)cc(OC)c1OC (centres undefined) | inactive: 2.24%
48 | CCOP(=O)(Nc1cccc2ccccc12)OCC | inactive: 2.16%
49 | Cc1ccc(NCCc2c([N+](=O)[O-])cc([N+](=O)[O-])cc2[N+](=O)[O-])cc1 | inactive: -3.71%
